{
  "source": "PubChem BioAssay AID743282",
  "about": "(The Scripps Research Institute Molecular Screening Center, 2014)",
  "note": "The entries are a selection whose mix differs from that of the whole data set. Calls of active or inactive are those of the source.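 How the source made its calls: active means average inhibition above the solvent-only control mean plus 3 SD (cut at about 6% in these data); inactive means the rest.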",
  "data": [
    {"assay": "535nm fluorescence optical interference, confirmation, artefact control for HGIII-sPLA2 inhibitor project, biochemical, QFRET (AID 743282);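 further: 0% = DMSO with substrate plus product and 100% = DMSO with substrate alone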", "settings": "BODIPY FL product fluorescence interference, at 12.2 µM, hits give high values", "values": [
      {"smiles": "CCN1CCC(Nc2ccc(Cl)cc2)CC1", "inhibition": "inactive: -7.42%"}
    ]}
  ]
}
